Experimental data from PMC3521585 (Journal of medicinal chemistry, 2009).

Sequences of proteins named here, by UniProt entry; tags and fusion partners are left off.
UniProt P25103, whole entry: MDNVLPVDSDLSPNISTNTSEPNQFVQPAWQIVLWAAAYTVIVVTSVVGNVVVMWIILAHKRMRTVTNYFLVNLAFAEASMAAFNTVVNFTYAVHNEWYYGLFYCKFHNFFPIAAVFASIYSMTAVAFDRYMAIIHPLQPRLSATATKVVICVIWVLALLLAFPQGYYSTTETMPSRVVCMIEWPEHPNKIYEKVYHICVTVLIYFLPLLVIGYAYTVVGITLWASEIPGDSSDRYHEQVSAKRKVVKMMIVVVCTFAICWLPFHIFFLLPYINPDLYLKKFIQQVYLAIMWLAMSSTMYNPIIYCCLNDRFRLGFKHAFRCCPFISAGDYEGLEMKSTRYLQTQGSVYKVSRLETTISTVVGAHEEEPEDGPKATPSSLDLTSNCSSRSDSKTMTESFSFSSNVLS
UniProt P14600, whole entry: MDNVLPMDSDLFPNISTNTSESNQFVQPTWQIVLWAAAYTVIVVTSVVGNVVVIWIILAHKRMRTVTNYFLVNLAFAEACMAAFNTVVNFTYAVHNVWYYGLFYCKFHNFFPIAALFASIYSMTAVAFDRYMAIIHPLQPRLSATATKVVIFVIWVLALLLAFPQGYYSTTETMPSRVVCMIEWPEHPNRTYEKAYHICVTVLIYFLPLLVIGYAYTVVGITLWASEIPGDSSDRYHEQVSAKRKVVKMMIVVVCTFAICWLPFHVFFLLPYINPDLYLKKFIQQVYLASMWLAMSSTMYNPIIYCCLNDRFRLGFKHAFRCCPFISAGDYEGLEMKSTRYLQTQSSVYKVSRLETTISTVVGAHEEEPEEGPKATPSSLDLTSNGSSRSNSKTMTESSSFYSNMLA

Tests used:
Assay in all cases: radioligand binding
[1] = target: human NK1 receptor (human, UniProt P25103 1-407)
[2] = target: human δ-opioid receptor (human, UniProt P41143 1-372)
[3] = target: rat NK1 receptor (rat, UniProt P14600 1-407)

Row | Binder | LogIC50 [1] | LogIC50 [2] | LogIC50 [3]
1 | YAGFXPSW (D-Ala at 2; norleucine (Nle) at 5 (written X); O-β-glucosylated serine (Ser(Glc)) at 7; C-terminal 3’,5’-bis(trifluoromethyl)benzyl amide) [Tyr-D-Ala-Gly-Phe-Nle-Pro-Ser(Glc)-Trp-NH-3’,5’-Bzl(CF3)2] | -9.75 | – | –
2 | YAGFXSLW (D-Ala at 2; norleucine (Nle) at 5 (written X); O-β-glucosylated serine (Ser(Glc)) at 6; C-terminal 3’,5’-bis(trifluoromethyl)benzyl amide) [Tyr-D-Ala-Gly-Phe-Nle-Ser(Glc)-Leu-Trp-NH-3’,5’-Bzl(CF3)2] | – | -7.12 | -7.14
